Experimental data as given in PMC7460603 (International Journal of Molecular Sciences, 2020).

Experiment: 1H NMR stability in aqueous media
Procedure: All assays were carried out immediately after the solution preparation.

**Q.** Which “stability under enzymatic assay conditions (1H NMR)” value (6.25% EtOH-d6/D2O, 80.2 mM K2HPO4 and 19.8 mM KH2PO4, immediately and after one hour) does the source give for “[(η^6-p-Cymene)Ru(1-hydroxyquinoline-2-(1H)-thionato)Cl] [Compound 1g]” here?
**A.** remain stable

**Q.** What about the “stability in D2O containing 140 mM NaCl (1H NMR)” value (after one day) of the same substance?
**A.** negligible changes

**Q.** And the “stability in D2O (1H NMR)” value (immediately and after three days)?
**A.** remain the main present species
